Measurements published in PMC5355811 (Nature Communications, 2017).

Key:
[1] = system: Ba/F3 cells of EGFR-del19; assay: Drug sensitivity screening at 100 nM, Ba/F3 EGFR-del19; type: cell-based
Procedure: (§1) After the incubation, cell viability was measured using CellTiter-Glo assay. The relative cell viability was calculated as a ratio of each value to that of the DMSO control.

[2] = system: Ba/F3 cells of EGFR-T790M/del19; assay: Drug sensitivity screening at 100 nM, Ba/F3 EGFR-T790M/del19; type: cell-based; conditions: Mus musculus, BaF3, 72 h, read-out: Relative cell viability (ratio to DMSO control), del19/T790M
Procedure: as §1

CNC(=O)c1cc(Oc2ccc(NC(=O)Nc3ccc(Cl)c(C(F)(F)F)c3)cc2)ccn1 [Sorafenib, sorafenib]
Relative cell viability (% of DMSO control) in del19 Ba/F3 cells ([1]; 0.1 µM): 137.444 and 117.128 and 107.552 | viability at 0.1 µM ([1]; Mus musculus, BaF3, 72 h, read-out: Relative cell viability (ratio to DMSO control), del19): 121% | viability at 0.1 µM [2]: 106%

Where “and” joins values, the source holds several entries; their conditions need not be identical. Equal entries are not always repeated.
